Protein sequences, listed by entry. Tags and fused reporters are not part of them.
UniProt P10275, whole entry: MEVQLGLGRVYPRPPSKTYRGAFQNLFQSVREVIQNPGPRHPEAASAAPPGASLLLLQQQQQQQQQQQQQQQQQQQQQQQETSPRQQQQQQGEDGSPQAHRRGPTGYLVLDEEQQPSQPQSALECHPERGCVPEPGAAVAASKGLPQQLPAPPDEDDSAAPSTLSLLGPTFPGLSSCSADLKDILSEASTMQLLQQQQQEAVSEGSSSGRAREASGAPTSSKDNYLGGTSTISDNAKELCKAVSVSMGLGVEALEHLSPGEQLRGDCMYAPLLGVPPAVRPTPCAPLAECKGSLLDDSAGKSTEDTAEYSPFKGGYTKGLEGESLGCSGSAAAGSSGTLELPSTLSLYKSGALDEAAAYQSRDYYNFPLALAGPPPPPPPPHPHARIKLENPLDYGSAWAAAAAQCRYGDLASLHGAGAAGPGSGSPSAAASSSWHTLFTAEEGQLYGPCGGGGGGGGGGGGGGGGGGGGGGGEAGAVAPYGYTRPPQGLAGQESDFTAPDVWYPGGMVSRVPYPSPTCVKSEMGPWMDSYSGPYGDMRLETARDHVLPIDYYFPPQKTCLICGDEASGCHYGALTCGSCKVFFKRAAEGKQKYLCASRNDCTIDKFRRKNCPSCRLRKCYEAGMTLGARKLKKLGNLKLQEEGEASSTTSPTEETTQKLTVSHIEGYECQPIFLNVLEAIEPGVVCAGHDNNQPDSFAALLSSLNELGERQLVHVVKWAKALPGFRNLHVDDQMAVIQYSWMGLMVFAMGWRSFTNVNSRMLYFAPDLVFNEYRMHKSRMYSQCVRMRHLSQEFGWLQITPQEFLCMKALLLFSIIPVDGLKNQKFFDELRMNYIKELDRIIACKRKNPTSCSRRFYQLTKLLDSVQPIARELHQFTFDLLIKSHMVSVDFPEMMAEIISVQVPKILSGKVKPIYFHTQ

In BindingDB's records for US10053433, “Androgen receptor antagonists” (2018):

Legend:
Androgen receptor [1] = biological target: T1, Androgen receptor (Homo sapiens, UniProt P10275); conditions: pH 7.5
Androgen receptor [2] = biological target: T1, Androgen receptor; conditions: pH 7.5; remark: listed apart in the source

Row | Structure (SMILES) | IC50 (Androgen receptor [1]) [µM] | IC50 (Androgen receptor [2]) [µM]
1 | C[C@](O)(CS(=O)(=O)c1ccc(F)cc1)C(=O)Nc1cncc(C(F)(F)F)c1 | 71.7 | 2.53
2 | C[C@](O)(CS(=O)(=O)c1ccc(F)cc1)C(=O)Nc1cc(C(F)(F)F)ccn1 | 12.4 | 1.55
